Test results reported in ChEMBL document CHEMBL1126140, “Nucleosides and nucleotides. 103. 2-Alkynyladenosines: a novel class of selective adenosine A2 receptor agonists with potent antihypertensive effects” (J Med Chem, 1992).

Amino acid sequences for entries named in this document (tags omitted).
UniProt P25099, whole entry: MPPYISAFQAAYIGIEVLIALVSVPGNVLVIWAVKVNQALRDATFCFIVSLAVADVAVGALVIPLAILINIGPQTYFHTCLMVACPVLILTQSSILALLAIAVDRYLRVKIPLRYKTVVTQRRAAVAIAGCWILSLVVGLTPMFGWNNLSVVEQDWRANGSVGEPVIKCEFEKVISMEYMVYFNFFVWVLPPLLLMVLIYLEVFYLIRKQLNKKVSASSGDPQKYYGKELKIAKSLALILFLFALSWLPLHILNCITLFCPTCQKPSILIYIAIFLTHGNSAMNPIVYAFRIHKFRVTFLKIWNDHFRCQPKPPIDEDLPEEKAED

Target: Adenosine receptor A1 (Rattus norvegicus, UniProt P25099)

Ki [nM] | Structure (SMILES)
780 | Nc1nc(Nc2ccccc2)nc2c1ncn2[C@@H]1O[C@H](CO)[C@@H](O)[C@H]1O
1230 | CCNC(=O)[C@H]1O[C@@H](n2cnc3c(N)nc(NCCc4ccc(CCC(=O)O)cc4)nc32)[C@H](O)[C@@H]1O [CGS-21680]
